Source: US10208081B2, “Bile acid derivatives as FXR/TGR5 agonists and methods of use thereof” (Enanta Pharmaceuticals, Inc., priority 2014, dated 2019)

The chains behind the UniProt entries cited, without tags or fusion partners.
UniProt Q96RI1, whole entry: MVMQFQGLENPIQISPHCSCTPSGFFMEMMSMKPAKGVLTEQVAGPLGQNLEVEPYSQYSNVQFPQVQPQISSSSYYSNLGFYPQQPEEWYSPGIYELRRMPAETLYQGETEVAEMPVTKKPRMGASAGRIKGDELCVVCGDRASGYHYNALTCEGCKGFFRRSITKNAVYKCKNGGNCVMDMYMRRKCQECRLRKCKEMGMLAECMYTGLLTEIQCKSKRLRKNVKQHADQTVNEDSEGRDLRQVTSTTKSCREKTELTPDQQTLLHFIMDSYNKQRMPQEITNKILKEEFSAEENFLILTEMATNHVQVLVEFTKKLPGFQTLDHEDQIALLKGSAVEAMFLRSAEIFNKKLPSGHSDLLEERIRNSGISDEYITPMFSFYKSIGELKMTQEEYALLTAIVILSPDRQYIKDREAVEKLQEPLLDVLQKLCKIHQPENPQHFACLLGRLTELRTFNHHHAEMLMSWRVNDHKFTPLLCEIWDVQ

Biological target: human FXR (NR1H4) (Homo sapiens (Human), UniProt Q96RI1)
Experiment: Human FXR (NR1H4) Assay (Gal4 promoter driven luciferase reporter, Indigo Bioscience kit IB00601)
Type: cell-based
Conditions: for Efficacy (%): efficacy normalized to CDCA set as 100%; for EC50: potency ranges

SMILES | Efficacy (%) | EC50 [nM]
CC[C@H]1[C@@H](O)[C@@H]2[C@H](CC[C@]3(C)[C@@H]([C@H](C)CCNC(=O)NS(=O)(=O)c4ccccc4Cl)CC[C@@H]23)[C@@]2(C)CC[C@@H](O)C[C@@H]12 | 244 | 100 to 1000
CC[C@H]1[C@@H](O)[C@@H]2[C@H](CC[C@]3(C)[C@@H]([C@H](C)C[C@H](C)NC(=O)NS(=O)(=O)C4CCCCC4)CC[C@@H]23)[C@@]2(C)CC[C@@H](O)C[C@@H]12 | 178 | 1000 to 10000
CC[C@H]1[C@@H](O)[C@@H]2[C@H](CC[C@]3(C)[C@@H]([C@H](C)CCN(C)C(=O)NS(=O)(=O)c4ccc5ccccc5c4)CC[C@@H]23)[C@@]2(C)CC[C@@H](O)C[C@@H]12 | 228 | 100 to 1000
CC[C@H]1[C@@H](O)[C@@H]2[C@H](CC[C@]3(C)[C@@H]([C@H](C)CNC(=O)NS(=O)(=O)c4ccc(C(C)(C)C)cc4)CC[C@@H]23)[C@@]2(C)CC[C@@H](O)C[C@@H]12 | 270 | < 100
CC[C@H]1[C@@H](O)[C@@H]2[C@H](CC[C@]3(C)[C@@H]([C@H](C)CCN(C)C(=O)NS(=O)(=O)C4CCCCC4)CC[C@@H]23)[C@@]2(C)CC[C@@H](O)C[C@@H]12 | 217 | 100 to 1000
CC[C@H]1[C@@H](O)[C@@H]2[C@H](CC[C@]3(C)[C@@H]([C@H](C)CNC(=O)NS(=O)(=O)N4CCCCC4)CC[C@@H]23)[C@@]2(C)CC[C@@H](O)C[C@@H]12 | 343 | 100 to 1000
CC[C@H]1[C@@H](O)[C@@H]2[C@H](CC[C@]3(C)[C@@H]([C@H](C)CNC(=O)NS(=O)(=O)c4ccc(OC(F)(F)F)cc4)CC[C@@H]23)[C@@]2(C)CC[C@@H](O)C[C@@H]12 | 219 | < 100
CC[C@H]1[C@@H](O)[C@@H]2[C@H](CC[C@]3(C)[C@@H]([C@H](C)CNC(=O)NS(=O)(=O)N4CCOCC4)CC[C@@H]23)[C@@]2(C)CC[C@@H](O)C[C@@H]12 | 264 | 1000 to 10000
CC[C@H]1[C@@H](O)[C@@H]2[C@H](CC[C@]3(C)[C@@H]([C@H](C)CCNC(=O)NS(=O)(=O)c4cccc5ccccc45)CC[C@@H]23)[C@@]2(C)CC[C@@H](O)C[C@@H]12 | 231 | < 100
CC[C@H]1[C@@H](O)[C@@H]2[C@H](CC[C@]3(C)[C@@H]([C@H](C)CNC(=O)NS(=O)(=O)C4CCCCC4)CC[C@@H]23)[C@@]2(C)CC[C@@H](O)C[C@@H]12 | 350 | 100 to 1000
CC[C@H]1[C@@H](O)[C@@H]2[C@H](CC[C@]3(C)[C@@H]([C@H](C)CCNC(=O)NS(=O)(=O)NC(C)(C)C)CC[C@@H]23)[C@@]2(C)CC[C@@H](O)C[C@@H]12 | 343 | 100 to 1000
